For one compound, Activity results are on record in ChEMBL document CHEMBL1152811, “Docking model of drug binding to the human ether-à-go-go potassium channel guided by tandem dimer mutant patch-clamp data: a synergic approach” (J Med Chem, 2009).

Holding throughout (format): cell-based
Data set [1] addresses Voltage-gated inwardly rectifying potassium channel KCNH2 (Homo sapiens, UniProt Q12809, Y652A). The experiment in a line: Binding affinity to human ERG Y652A mutant expressed in HEK293 cells assessed as blockade of membrane current at 0.2 uM by whole cell patch clamp method. The settings on record: hek293, 0.2 µM.
Data set [2] deals with T1, Voltage-gated inwardly rectifying potassium channel KCNH2 (Homo sapiens, UniProt Q12809). The data set can be described thus: Binding affinity to wild-type human ERG expressed in HEK293 cells assessed as blockade of membrane current at 0.05 uM by whole cell patch clamp method. The settings on record: hek293, 0.05 µM.
The target of data set [3] is T1, Voltage-gated inwardly rectifying potassium channel KCNH2. The experiment in a line: Binding affinity to wild-type human ERG expressed in HEK293 cells assessed as blockade of membrane current at 0.02 uM by whole cell patch clamp method. The settings on record: hek293, 0.02 µM.
The target in data set [4] is Voltage-gated inwardly rectifying potassium channel KCNH2 (Homo sapiens, UniProt Q12809, F656A). The data set can be described thus: Binding affinity to human ERG F656A mutant expressed in HEK293 cells assessed as blockade of membrane current at 0.05 uM by whole cell patch clamp method. The settings on record: hek293, 0.05 µM. Background: In patch-clamp work, channel activity is measured electrically.

`COc1cc(N)c(Cl)cc1C(=O)NC1CCN(CCCOc2ccc(F)cc2)CC1OC` (centres undefined) [CISAPRIDE]: the Activity result was “Not Active” in data set [1], “Active” in data set [2], “Active” in data set [3] and “Active” in data set [4].
